Results as given in patent publication US12304900B2, “Islet cell manufacturing compositions and methods of use” (Vertex Pharmaceuticals Incorporated, priority 2017, dated 2025).

Tested on: ESC Cell Line
Experiment: Flow cytometry of cells at the end of stage 3, differentiated in basal medium with different serum albumin
Type: cell-based
Settings: FIG. 3B

## HSA: human serum albumin, exemplary component of the basal culture medium
  effect of HSA concentration on percentage of Pdx1+ and CDX2+ cells: concentration-dependent effect
Compared to medium containing BSA or No SA
  percentage of off-target CDX2-positive (CDX2+) cells: significantly decreased
Compared to medium containing BSA or no serum albumin (No SA)
  percentage of Pdx1-positive cells (Pdx1+): significantly increased
